## Curated experimental data: properties

Data: OPERA 2.9 data sets, kmansouri/OPERA on GitHub.

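OPERA's authors assembled the values from existing databases and did not measure them anew. A listed value is a point estimate from one report or more. Method, purity and exact conditions of the single measurements are not given. The measured form (salt, isomer or mixture) is not always the one drawn. Unmarked limits or estimates from the upstream databases cannot be ruled out.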

Melting points are in °C.
The boiling point refers to atmospheric pressure (760 mmHg), by the definition of the set.
The octanol-water partition coefficient is given as log10; larger values mean a more lipophilic compound.
Solubility in water is on a log10 molar scale (set defined at 25 °C).
Vapor pressure is log10 of mmHg; the set covers 15 to 30 °C, mostly 20 to 25 °C.
The unbound fraction in human plasma runs from 0 (all bound) to 1 (all free).
Clint is human hepatic intrinsic clearance in µL/min per million cells; 0 means that no clearance was seen.
"–" marks a cell with nothing listed here.

CC(=O)O[C@]1(C(C)=O)CC[C@H]2[C@@H]3C=C(Cl)C4=CC(=O)[C@@H]5C[C@@H]5[C@]4(C)[C@H]3CC[C@@]21C [Cyproterone acetate] has fraction unbound 0.0584 and intrinsic clearance 4.46 µL/min/10^6 cells.
CC(NC(=O)C(N)CC(=O)O)C(=O)NC1C(C)(C)SC1(C)C.CC(NC(=O)C(N)CC(=O)O)C(=O)NC1C(C)(C)SC1(C)C.O.O.O.O.O (stereo unspecified) [Alitame] has mp 100 °C and water solubility -0.763 (log10 mol/L).
C=CNC=O [Formamide, N-ethenyl-] has mp -28.2 °C and logP -0.11 and log VP -0.803 (log10 mmHg).
CC1CCC2(C(=O)OC3OC(COC4OC(CO)C(OC5OC(C)C(O)C(O)C5O)C(O)C4O)C(O)C(O)C3O)CCC3(C)C(=CCC4C5(C)CC(O)C(O)C(C)(CO)C5CCC43C)C2C1C (stereo unspecified) has logP 0.44 and water solubility -3.986 (log10 mol/L).
CCCCCCCC/C=C/CCCCCCCC(=O)OCC(CO)(CO)COC(=O)CCCCCCC/C=C/CCCCCCCC has mp -7.5 °C and water solubility -7.124 (log10 mol/L).
CCCCCCCCCCCCCCCCCCOCCC[N+](C)(C)C.[Cl-] [Stearoxypropyltrimonium chloride] has mp 228.8 °C and log VP -4.979 (log10 mmHg).
Nc1c(CC(=O)O)cccc1C(=O)c1ccc(Br)cc1 [Bromfenac] has logP 3.4 and water solubility -4.424 (log10 mol/L).
COCC(=O)OC(c1ncccc1S(=O)(=O)NC(=O)Nc1nc(OC)cc(OC)n1)C(C)F (stereo unspecified) [Flucetosulfuron] has water solubility -3.631 (log10 mol/L) and log VP -6.854 (log10 mmHg).
CC1C2CC(CC2C2CCC(O)CC2)C1(C)C (stereo unspecified) [Cyclohexanol, 4-(5,5,6-trimethylbicyclo[2.2.1]hept-2-yl)-] has mp -2 °C and bp 240 °C.
Cn1nc(C(F)F)c(C(=O)F)c1F has mp 16.3 °C and bp 233 °C and logP 2 and log VP -2.33 (log10 mmHg).
CCOC(=O)C1CCCO1 (stereo unspecified) [ETHYL TETRAHYDRO-2-FUROATE] has logP 1.11 and log VP 0.121 (log10 mmHg).
Cc1onc(-c2ccccc2Cl)c1C(=O)N[C@@H]1C(=O)N2[C@@H]1SC(C)(C)[C@@H]2C(=O)O [Cloxacillin] has water solubility -4.5 (log10 mol/L) and fraction unbound 0.05.
COc1ccccc1NC(=O)CC(C)=O [N-(2-Methoxyphenyl)-3-oxobutanamide] has logP 0.91 and water solubility -1.806 (log10 mol/L).
CCCCN(CCCC)C(=O)c1ccc(C2=C3C(=O)NC(c4ccc(Cl)cc4)=C3C(=O)N2)cc1 has mp 390 °C and logP 4 and water solubility -6.98 (log10 mol/L) and log VP -7.466 (log10 mmHg).
COC(C)(OC)OC [1,1,1-Trimethoxyethane] has logP -0.335 and log VP 1.348 (log10 mmHg).
CC(C)=CC=O [3-Methylbut-2-enal] has logP 0.53 and log VP 0.75 (log10 mmHg).
CCCOCc1ccc(CC(C)C)cc1 [4-(2-Methylpropyl)benzyl propyl ether] has logP 5.5 and water solubility -4.783 (log10 mol/L) and log VP -1.935 (log10 mmHg).
CC(=O)O[C@H]1CC[C@H]2[C@@H]3CCc4cc(O)ccc4[C@H]3CC[C@]12C [Estradiol 17beta-acetate] has mp 218 °C and logP 4.
CC(C)(C)c1cc(-c2cc(C(C)(C)C)cc(C(C)(C)C)c2O)c(O)c(C(C)(C)C)c1 has mp 196.7 °C and log VP -7.084 (log10 mmHg).
C#CCOC(=O)NCCCC [2-Propynyl butylcarbamate] has mp -1.05 °C and logP 1.9 and water solubility -1.501 (log10 mol/L) and log VP -1.343 (log10 mmHg).
CC(C)(C)OC(=O)N[C@H](C(=O)O)C12CC3CC(CC(O)(C3)C1)C2 has mp 180.2 °C and logP 0.55 and water solubility -1.945 (log10 mol/L).
C[Si](C)(c1ccccc1)[C@@H]1CC=C(CO)[C@H]1C(=O)O[C@@](O)(c1ccc([N+](=O)[O-])cc1)[C@@H](N)CO has logP -0.212 and water solubility -4.638 (log10 mol/L) and log VP -8.782 (log10 mmHg).
CCNC(=O)COC(=O)c1ccccc1OC(C)=O [2-(Ethylamino)-2-oxoethyl 2-(acetyloxy)benzoate] has mp 80.5 °C and water solubility -1.682 (log10 mol/L).
CCOC(=O)C1CCC(C)CC1=O (stereo unspecified) [Ethyl 4-methyl-2-oxocyclohexane-1-carboxylate] has bp 245 °C and water solubility -1.857 (log10 mol/L) and log VP -0.681 (log10 mmHg).
CC(=O)C(C)=CC1C(C)=CCCC1(C)C (stereo unspecified) [alpha-Isomethylionone] has logP 4.625 and water solubility -4.093 (log10 mol/L) and log VP -1.831 (log10 mmHg) and fraction unbound 0.006334.
NC(=O)c1ccc(NC(=O)c2ccc([N+](=O)[O-])cc2)cc1 [N-(4-(Aminocarbonyl)phenyl)-4-nitrobenzamide] has mp 321 °C and logP 1.45.
CC12C=CC(=O)C=C1CCC1C2C(O)CC2(C)C1CC(O)C2(O)C(=O)CO (stereo unspecified) [11,16,17,21-Tetrahydroxypregna-1,4-diene-3,20-dione] has logP 0.8 and water solubility -2.665 (log10 mol/L) and log VP -11.65 (log10 mmHg).
CCCCCCCC[C@@H](O)CCCCCCCCC(=O)O [(10R)-10-Hydroxystearic acid] has mp 85.9 °C and logP 5.12 and water solubility -6.737 (log10 mol/L).
CN1CCN(c2ncccc2CO)C(c2ccccc2)C1 (stereo unspecified) [2-(4-Methyl-2-phenyl-1-piperazinyl)-3-pyridinemethanol] has mp 121.4 °C and logP 1.3 and water solubility -2.032 (log10 mol/L) and log VP -7.706 (log10 mmHg).
COC(=O)N1c2ccccc2C=C(OC)c2ccccc21 [Methyl 10-methoxy-5H-dibenz[b,f]azepine-5-carboxylate] has mp 147 °C and logP 2.8 and water solubility -4.733 (log10 mol/L).
Cc1cc(=O)oc2cc(OCC(=O)[O-])c(O)cc12.[Na+] [Sodium methylesculetin acetate] has mp 236 °C and logP 1 and water solubility -1.187 (log10 mol/L).
CC(C)(C)Nc1nc(N)nc(Cl)n1 [Desethylterbutylazine] has water solubility -2.79 (log10 mol/L) and log VP -5.58 (log10 mmHg).
Cc1nn(C)c(F)c1C(=O)F [5-Fluoro-1,3-dimethyl-1H-pyrazole-4-carbonyl fluoride] has mp 42.5 °C and bp 210 °C.

Excerpt, the opening 3 entries:

| structure (SMILES) | name | mp (°C) | bp (°C) | logP | water solubility (log10 mol/L) | log VP (log10 mmHg) | fraction unbound | intrinsic clearance (µL/min/10^6 cells) |
|---|---|---|---|---|---|---|---|---|
| CC(=O)O[C@]1(C(C)=O)CC[C@H]2[C@@H]3C=C(Cl)C4=CC(=O)[C@@H]5C[C@@H]5[C@]4(C)[C@H]3CC[C@@]21C | Cyproterone acetate | – | – | – | – | – | 0.0584 | 4.46 |
| CC(NC(=O)C(N)CC(=O)O)C(=O)NC1C(C)(C)SC1(C)C.CC(NC(=O)C(N)CC(=O)O)C(=O)NC1C(C)(C)SC1(C)C.O.O.O.O.O (stereo unspecified) | Alitame | 100 | – | – | -0.763 | – | – | – |
| C=CNC=O | Formamide, N-ethenyl- | -28.2 | – | -0.11 | – | -0.803 | – | – |